Among the data in ChEMBL document CHEMBL1268971, “4,5-Dihydro-1H-pyrazolo[4,3-h]quinazolines as potent and selective Polo-like kinase 1 (PLK1) inhibitors” (Bioorg Med Chem Lett, 2010) are IC50 values, retold here.

Protein sequences, listed by entry. Tags and fused reporters are not part of them.
UniProt P53350, whole entry: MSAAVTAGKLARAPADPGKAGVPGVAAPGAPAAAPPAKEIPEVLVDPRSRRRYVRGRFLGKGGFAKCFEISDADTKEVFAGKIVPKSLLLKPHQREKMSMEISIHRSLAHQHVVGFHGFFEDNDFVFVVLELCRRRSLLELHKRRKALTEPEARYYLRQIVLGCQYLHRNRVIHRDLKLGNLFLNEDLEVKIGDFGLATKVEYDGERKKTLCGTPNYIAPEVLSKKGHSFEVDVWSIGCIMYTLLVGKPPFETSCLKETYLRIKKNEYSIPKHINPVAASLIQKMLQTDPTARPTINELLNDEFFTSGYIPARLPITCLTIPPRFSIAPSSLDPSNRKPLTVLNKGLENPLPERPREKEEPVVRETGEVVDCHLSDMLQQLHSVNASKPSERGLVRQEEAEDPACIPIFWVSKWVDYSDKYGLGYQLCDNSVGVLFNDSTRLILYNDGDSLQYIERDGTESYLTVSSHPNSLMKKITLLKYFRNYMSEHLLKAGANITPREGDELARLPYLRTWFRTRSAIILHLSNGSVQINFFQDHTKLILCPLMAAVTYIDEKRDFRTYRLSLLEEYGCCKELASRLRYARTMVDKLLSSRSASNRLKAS

The structures appear in SMILES notation.

The experiment has as its target Serine/threonine-protein kinase PLK1 (Homo sapiens, UniProt P53350).

For orientation: IC50 means the concentration that gives 50% inhibition. Compound `CN1CCN(c2ccc(OC(F)(F)F)c(Nc3ncc4c(n3)-c3c(c(C(N)=O)nn3C)CC4)c2)CC1` yielded an IC50 of 3 nM.
